Experimental data reported in the NIST ThermoML archive (doi:10.1021/je5004912).

Experiment: excess molar enthalpy (molar enthalpy of mixing); xn = mol fraction of the nth substance listed
Details: 101 kPa, Liquid, Flow calorimetry

CCCCOCCCC [dibutyl ether] + CCCO
excess molar enthalpy [kJ/mol]
Details	298.15 K	313.15 K
x1 = 0.0501	0.13	–
x1 = 0.0502	–	0.15
x1 = 0.0998	0.252	0.291
x1 = 0.15	0.369	–
x1 = 0.1501	–	0.424
x1 = 0.2	0.477	–
x1 = 0.2001	–	0.547
x1 = 0.2495	0.573	0.656
x1 = 0.2999	0.662	–
x1 = 0.3	–	0.756
x1 = 0.35	0.739	0.843
x1 = 0.3998	0.806	–
x1 = 0.3999	–	0.915
x1 = 0.4499	0.86	–
x1 = 0.45	–	0.975
x1 = 0.4997	0.903	1.02
x1 = 0.5498	0.935	1.05
x1 = 0.5998	0.951	–
x1 = 0.5999	–	1.07
x1 = 0.6494	0.951	–
x1 = 0.6495	–	1.06
x1 = 0.6995	0.934	–
x1 = 0.6996	–	1.04
x1 = 0.7499	0.895	0.993
x1 = 0.8002	0.831	0.914
x1 = 0.8501	0.731	0.797
x1 = 0.8992	0.584	0.628
x1 = 0.9492	0.353	0.371
